From ChEMBL document CHEMBL1129555, “Arylacetamide-derived fluorescent probes: synthesis, biological evaluation, and direct fluorescent labeling of kappa opioid receptors in mouse microglial cells” (J Med Chem, 1996) come the findings set out here.

Chains of the proteins cited; added tags and fusions are not shown. Lines headed by an entry give the natural chain unless they say otherwise; changes in a name come on top.
UniProt P33534: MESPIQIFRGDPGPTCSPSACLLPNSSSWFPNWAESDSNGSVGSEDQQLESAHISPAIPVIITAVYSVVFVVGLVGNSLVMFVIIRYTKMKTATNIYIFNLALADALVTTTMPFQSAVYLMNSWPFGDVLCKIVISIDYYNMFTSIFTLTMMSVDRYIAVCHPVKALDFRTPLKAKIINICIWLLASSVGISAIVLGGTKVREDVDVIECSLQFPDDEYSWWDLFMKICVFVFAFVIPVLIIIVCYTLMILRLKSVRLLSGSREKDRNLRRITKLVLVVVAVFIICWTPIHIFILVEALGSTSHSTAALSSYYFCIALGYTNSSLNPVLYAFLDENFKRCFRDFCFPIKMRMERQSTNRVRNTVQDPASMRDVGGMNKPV
UniProt P41144: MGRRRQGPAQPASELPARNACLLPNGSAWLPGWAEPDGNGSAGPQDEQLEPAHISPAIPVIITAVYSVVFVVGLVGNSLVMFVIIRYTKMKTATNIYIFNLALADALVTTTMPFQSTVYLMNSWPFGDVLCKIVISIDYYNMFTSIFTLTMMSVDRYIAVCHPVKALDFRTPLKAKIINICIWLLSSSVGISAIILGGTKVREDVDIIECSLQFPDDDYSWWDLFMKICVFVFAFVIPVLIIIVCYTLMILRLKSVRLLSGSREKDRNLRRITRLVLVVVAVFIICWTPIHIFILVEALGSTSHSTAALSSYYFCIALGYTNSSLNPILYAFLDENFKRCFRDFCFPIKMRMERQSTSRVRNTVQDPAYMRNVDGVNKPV

The target in test [1] is Kappa-type opioid receptor (Mus musculus, UniProt P33534). Description: Inhibitory activity against Opioid receptor kappa 1 in electrically stimulated mouse vas deferens (MVD) preparation.
In test [2] the target is Kappa-type opioid receptor (Cavia porcellus, UniProt P41144). Description: Inhibitory activity against Opioid receptor kappa 1 in electrically stimulated guinea pig longitudinal ileal muscle (GPI) preparation.

What is called IC50 is the concentration at which inhibition is half-maximal. A high value points to lower potency.

On to `CN(C(=O)Cc1ccc(Cl)c(Cl)c1)[C@H](CN1CCCC1)c1ccccc1`, for which the 50% inhibitory concentration (IC50) in test [1] was 2.5 nM; in test [2], 0.27 nM.

As to `CN(C(=O)Cc1ccc(Cl)c(Cl)c1)C(CN1CCCC1)c1ccc(N)cc1` (stereo unspecified), the IC50 in test [1] worked out at 4.5 nM; in test [2], 0.65 nM.

Turning to `CN(C(=O)Cc1ccc(Cl)c(Cl)c1)[C@H](CN1CCCC1)c1cccc(N)c1`, the values for the IC50 in test [1] and in test [2] were 0.12 nM and 0.17 nM, respectively.
